ChEMBL document CHEMBL5108049, “Development and Characterization of Type I, Type II, and Type III LIM-Kinase Chemical Probes” (J Med Chem, 2022)

By UniProt entry, the sequences of proteins in these tests, tags left out. Where a name states a change or a piece, a line headed by the entry shows the natural chain unless it says otherwise.
UniProt P53671: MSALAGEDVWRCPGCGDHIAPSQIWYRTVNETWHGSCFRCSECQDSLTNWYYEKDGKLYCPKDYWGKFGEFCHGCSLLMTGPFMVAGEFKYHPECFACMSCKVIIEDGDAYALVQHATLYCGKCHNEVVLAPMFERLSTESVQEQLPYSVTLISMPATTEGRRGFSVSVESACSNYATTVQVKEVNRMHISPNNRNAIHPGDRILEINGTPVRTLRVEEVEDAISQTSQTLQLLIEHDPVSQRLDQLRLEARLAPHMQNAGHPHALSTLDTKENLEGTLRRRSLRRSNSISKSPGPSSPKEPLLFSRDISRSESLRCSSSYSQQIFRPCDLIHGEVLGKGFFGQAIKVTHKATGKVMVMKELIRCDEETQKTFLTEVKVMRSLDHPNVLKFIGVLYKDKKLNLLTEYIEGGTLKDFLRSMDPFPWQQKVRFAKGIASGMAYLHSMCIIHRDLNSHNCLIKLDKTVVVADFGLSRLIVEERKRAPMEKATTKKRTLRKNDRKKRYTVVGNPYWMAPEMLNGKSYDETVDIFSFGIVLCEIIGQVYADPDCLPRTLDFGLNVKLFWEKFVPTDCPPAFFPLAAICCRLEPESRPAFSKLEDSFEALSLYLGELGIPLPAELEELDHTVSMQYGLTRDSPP

Biological target: LIM domain kinase 2 (Homo sapiens, UniProt P53671)
Assay: Inhibition of LIMK2 (unknown origin)

- IC50: 0.024 µM
Structure (SMILES): Cc1c[nH]c2ncnc(-c3ccc(NC(=O)N(CCO)c4ccccc4)cc3)c12
